Data published in patent publication US9919060B2 (University Court of the University of Dundee, priority 2009, dated 2018).

Molecular target: T1, CYP1B1 (Homo sapiens, UniProt Q16678)
T1 sequence (Q16678 1-543): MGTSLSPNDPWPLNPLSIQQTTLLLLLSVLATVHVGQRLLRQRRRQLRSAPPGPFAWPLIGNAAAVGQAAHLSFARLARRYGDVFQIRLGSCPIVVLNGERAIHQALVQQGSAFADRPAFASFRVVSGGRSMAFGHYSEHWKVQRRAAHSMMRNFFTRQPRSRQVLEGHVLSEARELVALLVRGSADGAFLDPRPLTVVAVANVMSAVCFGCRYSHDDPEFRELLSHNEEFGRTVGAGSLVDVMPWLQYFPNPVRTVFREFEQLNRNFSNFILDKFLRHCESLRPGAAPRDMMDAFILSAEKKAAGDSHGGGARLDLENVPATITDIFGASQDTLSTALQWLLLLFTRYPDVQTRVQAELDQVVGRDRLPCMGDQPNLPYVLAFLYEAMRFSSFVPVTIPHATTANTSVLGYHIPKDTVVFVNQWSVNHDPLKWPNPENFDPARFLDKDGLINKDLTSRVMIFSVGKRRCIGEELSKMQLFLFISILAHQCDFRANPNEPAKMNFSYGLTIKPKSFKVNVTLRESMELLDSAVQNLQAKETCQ
Assay: CYP1B1 substrate prediction model (Gaussian Kernel weighted k-NN)

O=c1cc(-c2ccccc2)oc2c1ccc1ccccc12 [α-napthoflavone, α-naphthoflavone, reference compound]
% CYP1B1 substrate inhibition, accuracy (predicted versus actual): 93%
